# AlphaSeq binding of Ab-91 heavy chain variants to a spike HR2 peptide

Source: Engelhart et al. 2022 (doi:10.1038/s41597-022-01779-4), MIT Lincoln Laboratory and A-Alpha Bio; data file from the FLAb repository.

The target is the same throughout: PDVDLGDISGINAS, from the HR2 region of SARS-CoV-2 spike.

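The starting antibody came from a phage panning campaign against this peptide. Variants in AAYL51 differ from the parent at up to three CDR positions; double and triple changes were sampled at random. AlphaSeq pools MATa yeast showing the antibodies with MATalpha yeast showing the peptide. Binding brings cells together so that they mate, and sequencing counts the barcode pairs among the diploids. Each replicate has its own calibration line, from reference interactions of the BCL2 family. Each pool was mated in three replicate cultures.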

Parent scFv Ab-91: VL joined to VH by a (GGGGS)3 linker. Changes lie in the heavy chain CDRs alone.
VL: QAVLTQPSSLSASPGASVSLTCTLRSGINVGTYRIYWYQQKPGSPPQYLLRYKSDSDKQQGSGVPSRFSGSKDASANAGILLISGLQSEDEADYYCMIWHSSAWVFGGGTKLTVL
VH: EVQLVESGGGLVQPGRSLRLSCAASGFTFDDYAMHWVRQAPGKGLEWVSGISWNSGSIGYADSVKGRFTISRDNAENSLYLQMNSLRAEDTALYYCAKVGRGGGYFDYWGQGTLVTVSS

Positions count from residue 1 of the parent VH; G50M puts M in place of G. Values are log10 of the apparent Kd in nM; lower means stronger binding. "n.d." means that the variant was in the library but no mating with the target was seen in that replicate; the authors take this as a sign of poor binding, and no number exists. Three control strains display no target. For library AAYL51, 21% of the pairings with them gave a signal, with a median of 4.54 and one signal in twenty below 3.26, so weak values seen in few replicates may be background. Also given: how often the same scFv was detected with the empty control strains, with their mean in brackets. In this assay the parent's reference entry averaged 1.86; its copy inside this library read 0.88.

changes | replicates, log10 nM | signal with controls
G50M+N54S+F106P | 5.08 / n.d. / 5.29 | 6 of 9 (5.10)
A61G+V99W+G100V | 1.59 / 1.57 / 1.15 | 6 of 9 (5.40)
S52K+G102F | n.d. / 5.18 / n.d. | 1 of 9 (3.61)
D31C+G104T+Y108N | 3.75 / n.d. / 3.01 | 2 of 9 (4.74)
V64Y+G102P | n.d. / n.d. / n.d. | 0 of 9
D31W+S52W+D62M | n.d. / n.d. / n.d. | 2 of 9 (4.46)
F29E+A33V+Y105D | n.d. / n.d. / n.d. | 0 of 9
S57T+R101S+Y108V | 3.60 / 3.03 / 2.81 | 2 of 9 (4.93)
A61P+F106H | n.d. / 5.77 / n.d. | 3 of 9 (4.09)
D31W+S55W+G56V | n.d. / n.d. / n.d. | 1 of 9 (4.89)
H35D+S52Q+A61L | 4.68 / 5.54 / 4.90 | 6 of 9 (5.12)
D62N+S63Q+Y105R | 6.00 / n.d. / n.d. | 3 of 9 (4.22)
A33V+G104I+F106Y | n.d. / n.d. / n.d. | 1 of 9 (3.47)
M34A+G56S+K65M | n.d. / n.d. / 2.83 | 2 of 9 (4.07)
G50D+W53K+G104T | 4.53 / n.d. / n.d. | 3 of 9 (4.80)
T28I+S63F+G102I | 2.62 / 2.93 / 2.47 | 3 of 9 (3.97)
H35Y+V64K+G100D | n.d. / n.d. / n.d. | 0 of 9
V64L | n.d. / n.d. / n.d. | 0 of 9
S52M+N54V+G56A | n.d. / n.d. / n.d. | 0 of 9
Y32F+G59F+Y108I | 5.13 / 6.28 / n.d. | 7 of 9 (4.44)
A61G+R101G+Y105K | n.d. / n.d. / n.d. | 0 of 9
Y32S+W53F+G59K | 4.89 / n.d. / 4.76 | 2 of 9 (6.12)
G50C+D62F+V64W | 4.51 / 5.15 / n.d. | 5 of 9 (4.20)
F27K+F29T+N54K | n.d. / n.d. / n.d. | 1 of 9 (2.78)
I51V+S52N+G102Y | 2.93 / 3.58 / n.d. | 0 of 9
T28R+N54W+S57K | n.d. / n.d. / 4.88 | 4 of 9 (4.96)
D31R+I51Y+G100R | 5.23 / n.d. / n.d. | 1 of 9 (4.02)
T28G+A33Q+K65F | n.d. / n.d. / n.d. | 0 of 9
D30I+S57R+K65D | n.d. / 4.44 / n.d. | 4 of 9 (5.05)
F29Q+A33T+G104V | n.d. / n.d. / n.d. | 2 of 9 (3.03)
I51Q+S55E+Y60N | 3.93 / 5.88 / n.d. | 1 of 9 (3.93)
M34H | n.d. / n.d. / n.d. | 3 of 9 (3.56)
I51P+R101G | 4.23 / n.d. / n.d. | 0 of 9
Y32T+G56R+F106Y | n.d. / n.d. / n.d. | 0 of 9
T28K+W53N+G56Y | 4.49 / 3.06 / 3.39 | 3 of 9 (4.94)
S55H+S63K+V99R | 4.23 / n.d. / 4.16 | 1 of 9 (5.02)
D31N+M34H+R101C | n.d. / n.d. / n.d. | 0 of 9
I51T+I58S+S63P | 6.29 / 4.53 / 4.82 | 6 of 9 (4.31)
N54M+K65E | 5.43 / n.d. / 5.05 | 3 of 9 (4.84)
D31E+S57I+G100Y | n.d. / n.d. / n.d. | 0 of 9
G56W+K65S+G100S | 4.04 / 4.80 / 5.29 | 5 of 9 (4.41)
W53V+S55D+R101N | 4.98 / 5.18 / n.d. | 3 of 9 (4.47)

The first 3 variants above that were never detected:

changes | replicates, log10 nM | signal with controls
V64Y+G102P | n.d. / n.d. / n.d. | 0 of 9
D31W+S52W+D62M | n.d. / n.d. / n.d. | 2 of 9 (4.46)
F29E+A33V+Y105D | n.d. / n.d. / n.d. | 0 of 9